Only a part is listed here, and it is no random draw. Results filed as inconclusive are left out. Where a call stands in place of a potency, no number is given. Calls of active or inactive are those of the source. Calls follow the shape of the dose curve; as a rule, active = well fitted inhibition curve with a large enough effect; inconclusive = small, poorly fitted or top-dose-only effect; inactive = flat fitted curve, though single readings scatter.
Potency is read from the fitted curve at half-maximal effect.

A short description of the experiment: qHTS for Inhibitors of human tyrosyl-DNA phosphodiesterase 1 (TDP1): qHTS in cells in presence of CPT. Also: nearly all actives have a fitted effect of over 55% in size. Particulars: chicken DT40 Tdp1-/-;hTDP1 cells + 20 nM CPT, ATP luminescence, 48 h; series mostly up to 92.5 µM. (qHTS replaces the single test concentration by a dilution series.)
`CCC(=O)N(c1ccccc1)C1(COC)CCN(CCc2cccs2)CC1`: the Potency was active: 13.7 µM.

As for `CCC(=O)N(c1ccccc1)C1(COC)CCN(CCn2nnn(CC)c2=O)CC1`, the Potency entry is “inactive”.

For the origin of these results see PubChem BioAssay AID686979 (National Center for Advancing Translational Sciences (NCATS), 2013).
